{
  "source": "ChEMBL document CHEMBL3734746",
  "about": "“Monoamine oxidase inhibitory activities of heterocyclic chalcones” (Bioorg Med Chem Lett, 2015)",
  "species_on_record": "Homo sapiens",
  "assay": "Selectivity index, ratio of IC50 for human MAO-A to IC50 for human MAO-B",
  "data": [
    {"compound": "O=C(/C=C/c1ccc(C(F)(F)F)cc1)c1ccc[nH]1", "values": [
      {"measurement": "Ratio IC50", "result": 4.6}
    ]}
  ]
}
